The chains behind the UniProt entries cited, without tags or fusion partners.
UniProt Q14524, whole entry: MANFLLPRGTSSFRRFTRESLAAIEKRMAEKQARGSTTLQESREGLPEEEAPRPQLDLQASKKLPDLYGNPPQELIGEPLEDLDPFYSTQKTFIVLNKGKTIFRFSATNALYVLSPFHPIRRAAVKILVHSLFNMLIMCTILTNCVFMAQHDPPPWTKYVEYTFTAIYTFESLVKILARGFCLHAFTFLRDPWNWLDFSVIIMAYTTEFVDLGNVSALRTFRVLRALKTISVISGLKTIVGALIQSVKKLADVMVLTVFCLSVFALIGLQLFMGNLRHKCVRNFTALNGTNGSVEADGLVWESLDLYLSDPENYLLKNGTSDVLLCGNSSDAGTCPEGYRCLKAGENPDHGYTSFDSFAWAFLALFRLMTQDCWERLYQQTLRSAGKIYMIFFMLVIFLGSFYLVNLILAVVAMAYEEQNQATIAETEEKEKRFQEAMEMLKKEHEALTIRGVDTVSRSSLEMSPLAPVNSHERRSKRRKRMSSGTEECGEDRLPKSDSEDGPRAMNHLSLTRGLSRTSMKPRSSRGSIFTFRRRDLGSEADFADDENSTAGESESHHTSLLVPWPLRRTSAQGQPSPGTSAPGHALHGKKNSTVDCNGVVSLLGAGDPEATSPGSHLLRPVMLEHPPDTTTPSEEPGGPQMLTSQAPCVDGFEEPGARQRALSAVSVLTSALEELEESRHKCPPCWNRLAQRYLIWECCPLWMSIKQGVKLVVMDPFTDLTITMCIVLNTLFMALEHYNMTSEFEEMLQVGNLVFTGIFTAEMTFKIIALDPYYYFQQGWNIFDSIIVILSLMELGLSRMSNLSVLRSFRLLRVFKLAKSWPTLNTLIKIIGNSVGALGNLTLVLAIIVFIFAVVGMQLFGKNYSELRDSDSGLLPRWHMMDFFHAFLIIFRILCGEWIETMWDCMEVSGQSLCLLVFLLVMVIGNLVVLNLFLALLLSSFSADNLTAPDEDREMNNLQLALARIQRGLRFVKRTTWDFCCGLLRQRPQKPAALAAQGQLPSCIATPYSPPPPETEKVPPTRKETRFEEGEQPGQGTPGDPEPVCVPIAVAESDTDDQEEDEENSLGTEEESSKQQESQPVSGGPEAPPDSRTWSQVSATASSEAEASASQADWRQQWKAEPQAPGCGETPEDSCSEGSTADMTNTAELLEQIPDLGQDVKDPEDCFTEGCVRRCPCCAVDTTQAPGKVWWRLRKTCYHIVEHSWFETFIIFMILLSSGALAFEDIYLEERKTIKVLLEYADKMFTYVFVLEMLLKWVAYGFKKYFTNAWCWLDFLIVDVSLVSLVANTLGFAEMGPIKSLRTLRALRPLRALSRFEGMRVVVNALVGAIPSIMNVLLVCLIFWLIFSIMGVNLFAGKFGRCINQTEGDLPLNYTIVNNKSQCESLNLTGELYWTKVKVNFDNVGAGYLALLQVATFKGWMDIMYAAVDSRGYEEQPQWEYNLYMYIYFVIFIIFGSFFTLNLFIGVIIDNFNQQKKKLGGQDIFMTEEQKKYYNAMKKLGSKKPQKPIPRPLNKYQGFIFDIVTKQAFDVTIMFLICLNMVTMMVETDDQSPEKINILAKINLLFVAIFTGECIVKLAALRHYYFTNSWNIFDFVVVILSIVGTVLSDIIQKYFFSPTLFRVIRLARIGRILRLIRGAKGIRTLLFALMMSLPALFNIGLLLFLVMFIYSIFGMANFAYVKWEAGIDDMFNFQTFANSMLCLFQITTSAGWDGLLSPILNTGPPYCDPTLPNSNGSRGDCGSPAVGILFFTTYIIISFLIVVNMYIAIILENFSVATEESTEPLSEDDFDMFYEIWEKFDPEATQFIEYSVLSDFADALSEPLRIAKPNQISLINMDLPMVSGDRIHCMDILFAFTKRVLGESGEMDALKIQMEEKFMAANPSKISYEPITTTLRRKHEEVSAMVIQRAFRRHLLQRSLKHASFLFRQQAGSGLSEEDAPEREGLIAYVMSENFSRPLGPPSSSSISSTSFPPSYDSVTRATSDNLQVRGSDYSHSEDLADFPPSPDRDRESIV

In patent US8350076B2, “Sodium channel blockers” (University of Virginia Patent Foundation, priority 2002, dated 2013):

Biological target: Nav1.5 (Homo sapiens, UniProt Q14524)
Assay: Electrophysiology, sodium currents in CHO cells stably expressing Nav1.5

## CCCCCCCC(O)(C(N)=O)c1cccc(Cl)c1 (stereo not shown) [Compound 1]
  EC50: 14.7 µM
